How the values were obtained:
[1] = system: patients treated with aducanumab; test: Aducanumab ARIA and amyloid PET; format: in vivo, human; details: one patient, 44 months, 31 infusions, cumulative dose 124mg/kg
[2] = system: patients treated with aducanumab; details: cited from earlier work

Q: What does the source list for “aducanumab: anti-amyloid monoclonal antibody”?
A: asymptomatic ARIA episodes [1]: 6; ARIA-E incidence, APOE ε4 carriers ([2]; 10 mg/kg): 42%; ARIA-E incidence, non-carriers ([2]; 10 mg/kg): 20%; ARIA-E incidence ([2]; trial participants receiving 10 mg/kg): 35%
